According to patent US7235627B2, “Derivatives of GLP-1 analogs” (Novo Nordisk A/S, priority 1996, dated 2007):

What was measured:
[1] = Protraction of GLP-1 derivatives after s.c. administration: plasma concentration by RIA; assay type: in vivo, pigs (50% Duroc, 25% Yorkshire, 25% Danish Landrace); conditions: healthy pigs, 0.5 nmol/kg sc, n=2
[2] = Circular Dichroism (CD) at 222 nm as a function of peptide concentration (helix content); assay type: physicochemical; conditions: for content of α-helix (CD at 222 nm): 10 mM tris buffer, pH 8, 23° C.
Experimental: […]. For the GLP-1 derivatives forming partially structured micellar-like aggregates in aqueous solution the helix content remains constant above 30% at concentrations of 10 μM. The aggregated structured conformation is an inherent property of the derivative present in water or dilute aqueous buffer without the need for any additional structure-inducing components.

Substance | plasma concentration, % of the maximum concentration for the individual compound ([1]; 0.75 h after administration) [%] | plasma concentration, % of the maximum concentration for the individual compound ([1]; 1 h after administration) [%] | plasma concentration, % of the maximum concentration for the individual compound ([1]; 2 h after administration) [%] | plasma concentration, % of the maximum concentration for the individual compound ([1]; 4 h after administration) [%] | plasma concentration, % of the maximum concentration for the individual compound ([1]; 6 h after administration) [%] | plasma concentration, % of the maximum concentration for the individual compound ([1]; 8 h after administration) [%] | plasma concentration, % of the maximum concentration for the individual compound ([1]; 10 h after administration) [%] | plasma concentration, % of the maximum concentration for the individual compound ([1]; 24 h after administration) [%] | plasma concentration, % of the maximum concentration for the individual compound ([1]; 12 h after administration) [%] | content of α-helix (CD at 222 nm) ([2]; 25 μM peptide) | content of α-helix (CD at 222 nm) ([2]; 1000 μM peptide) | helix content (CD) ([2]; at 500 μM concentration) | helix content (CD) ([2]; low peptide concentration, before the increase with concentration)
Arg^26,34 Lys^36(N^ε-(ω-carboxyheptadecanoyl))-GLP-1(7–36)-OH [Example 14] | 18 | 25 | 32 | 47 | 98 | 83 | 97 | 100 |  |  |  |  | 
Arg^26,34Lys^36(N^ε-(ω-carboxyheptadecanoyl))-GLP-1(7–37)-OH [Example 12] | 36 | 54 | 65 | 94 | 80 | 100 | 85 | 93 |  |  |  |  | 
Arg^26,34Lys^38 -(N^ε-(ω-carboxypentadecanoyl))-GLP-1(7–38)-OH [Example 34] | 19 | 32 | 44 | 84 | 59 | 66 | 83 | 100 | 84 |  |  |  | 
Arg^26,34Lys^38(N^ε-(γ-glutamyl(N^α-hexadecanoyl)))-GLP-1(7–38)-OH [Example 40] | 47 | 19 | 50 | 100 | 51 | 56 | 34 | 0 | 14 |  |  |  | 
Arg^26,34Lys^38(N^ε-(γ-glutamyl(N^α-tetradecanoyl)))-GLP-1(7–38)-OH [Example 38] | 60 | 53 | 100 | 66 | 48 | 39 | 25 | 0 | 29 |  |  |  | 
Arg^26,34Lys^38(N^ε-(ω-carboxyheptadecanoyl))-GLP-1(7–38)-OH [Example 13] | 15 | 22 | 38 | 59 | 97 | 85 | 100 | 76 |  |  |  |  | 
Arg^26,34Lys^38(N^ε-(ω-carboxypentadecanoyl))-GLP-1(7–38)-OH [Example 39] | 38 | 100 | 70 | 47 | 33 | 33 | 18 | 14 | 27 |  |  |  | 
Arg^34Lys^26(N^ε-(γ-glutamyl(N^α-hexadecanoyl)))-GLP-1(7–37)-OH [Example 37] |  | 26 | 38 | 97 | 100 | 71 | 81 | 45 | 80 |  |  |  | 
Arg^34Lys^26(N^ε-(γ-glutamyl(N^α-tetradecanoyl)))-GLP-1(7–37)-OH [Example 43] |  | 39 | 71 | 93 | 100 | 91 | 59 | 17 | 50 |  |  |  | 
Arg^34Lys^26(N^ε-(ω-carboxyheptadecanoyl))-GLP-1(7–37)-OH [Example 11] | 24 | 47 | 59 | 71 | 100 | 94 | 100 | 94 |  |  |  |  | 
Arg^34Lys^26(N^ε-(ω-carboxypentadecanoyl))-GLP-1(7–37)-OH [Example 25] | 73 | 92 | 100 | 98 | 82 | 24 | 16 | 16 | 16 |  |  |  | 
GLP-1(7–37) |  |  |  |  |  |  |  |  |  | about 15% | 30–35% | 30–35% | 10–15%
Lys^26,34-bis(N^ε-(ω-carboxytridecanoyl))-GLP-1(7–37)-OH [Example 32] | 55 | 53 | 90 | 83 | 88 | 70 | 98 | 100 | 100 |  |  |  | 
Lys^26,34bis(N^ε-(ω-carboxyundecanoyl))-GLP-1(7–37)-OH [Example 17] | 76 | 71 | 91 | 100 | 84 | 68 | 30 | 9 |  |  |  |  | 
